From paper PMC3686309 (ACS medicinal chemistry letters, 2013)

Protein sequences, listed by entry. Tags and fused reporters are not part of them.
UniProt O75874, whole entry: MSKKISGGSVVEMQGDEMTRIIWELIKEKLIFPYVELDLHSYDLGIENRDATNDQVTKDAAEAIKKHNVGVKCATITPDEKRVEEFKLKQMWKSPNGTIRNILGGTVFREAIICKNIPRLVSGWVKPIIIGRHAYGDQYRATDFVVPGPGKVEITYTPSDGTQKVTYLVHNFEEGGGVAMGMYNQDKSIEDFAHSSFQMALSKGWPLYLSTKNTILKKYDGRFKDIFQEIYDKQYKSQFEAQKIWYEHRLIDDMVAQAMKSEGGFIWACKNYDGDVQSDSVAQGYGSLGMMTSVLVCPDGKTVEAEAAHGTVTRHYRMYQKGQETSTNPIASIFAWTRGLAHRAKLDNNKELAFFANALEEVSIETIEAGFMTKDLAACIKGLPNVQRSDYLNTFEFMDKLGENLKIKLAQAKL

Tests used:
WT IDH1 [1] = target: WT IDH1 (Homo sapiens, UniProt O75874); assay: WT IDH1 enzyme inhibition; type: biochemical
WT IDH1 [2] = assay: WT IDH1 enzyme inhibition; type: biochemical, human; details: mutant IDH1 vs WT-IDH1

Work on `O=c1ccc(Cc2ccccc2)cn1O` [Compound 1] yielded a Ki (WT IDH1 [1]) greater than 50 µM.
In the case of `Cc1cc(Cc2ccc(O)cc2)n(O)c(=O)c1` [Compound 3], the “selectivity against WT-IDH1” value (WT IDH1 [2]) is reported as greater than 60 fold.
